The record followed here is PubChem BioAssay AID504462 (Sanford-Burnham Center for Chemical Genomics, 2011).

Chains of the proteins cited; added tags and fusions are not shown.
UniProt Q9Y4P1, whole entry: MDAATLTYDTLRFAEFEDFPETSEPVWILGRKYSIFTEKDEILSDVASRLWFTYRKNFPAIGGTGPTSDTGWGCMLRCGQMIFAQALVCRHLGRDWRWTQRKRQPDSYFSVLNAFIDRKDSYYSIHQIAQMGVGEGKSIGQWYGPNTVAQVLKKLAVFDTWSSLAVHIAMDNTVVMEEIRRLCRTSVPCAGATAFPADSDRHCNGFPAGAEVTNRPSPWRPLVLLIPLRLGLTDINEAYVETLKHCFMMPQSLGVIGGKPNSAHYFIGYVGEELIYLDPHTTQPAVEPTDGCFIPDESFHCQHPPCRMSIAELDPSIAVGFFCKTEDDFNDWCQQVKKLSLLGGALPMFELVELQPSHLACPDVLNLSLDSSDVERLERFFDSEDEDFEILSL

Structures are written as SMILES. The entries are a selection whose mix differs from that of the whole data set. Calls of active or inactive are those of the source. Rule as the data show it: active = inhibition above about 40%; inactive = the rest.

The experiment addresses Cysteine protease ATG4B (Homo sapiens) (UniProt Q9Y4P1). As to the kind of experiment: blockers of ATG4B cysteine protease activity – biochemical, fluorescence, uHTS, primary screen (AID 504462). As to conditions: ATG4B cleavage of LC3-PLA2, NBD-HPC fluorescence, 1 h; at 8.33 µM; hits give high values.
In the case of `CCc1cc(C(=O)NCC2(N3CCCCC3)CCCCC2)sc1C`, the inhibition (as a rule, the drop in the measured response relative to a control, in per cent) was inactive: -7.97%. As for `O=C(OC1CN2CCC1CC2)C1c2ccccc2C=Cc2ccccc21` (stereo not given), the figure is inactive: 1.51%.

Take `CN(C)c1cccc(C(=O)NCC2(N3CCCCC3)CCCCC2)c1`: the inhibition is inactive: -21.5%. As for `COc1ccc(CN(CCCl)CCCl)cc1Cl`, the figure is inactive: -2.66%.

Turning to `CC(C)c1ccc(NC2CCN(C(=O)OC(C)(C)C)CC2)cc1`, the inhibition is inactive: -0.17%. In the case of `O=C(NCC1(N2CCOCC2)CCCCC1)c1cc(F)c(F)cc1Cl` it was inactive: -8%. In the case of `COc1cc(OC)c(C(=O)NCC2(N(C)C)CCCCC2)cc1OC` it was inactive: -2.58%; in that of `CN1CCC(Nc2cccc(F)c2)CC1`, inactive: -0.52%. In the case of `O=C(NCC1(N2CCCCC2)CCCCC1)c1cncc(Br)c1` it was inactive: -4.76%; in that of `CCCOc1ccc(C(=O)NCC2(N(C)C)CCCCC2)cc1OC`, inactive: -7.63%. `O=C(NCC1(N2CCCCC2)CCCCC1)c1ccc(OC(F)F)cc1`: the inhibition was inactive: -4.27%.

Take `CSc1ccc(C(=O)NCC2(N3CCOCC3)CCCCC2)cc1`: the inhibition is inactive: -2.79%. As for `O=C(NCC1(N2CCCCC2)CCCCC1)c1cccc([N+](=O)[O-])c1`, the figure is inactive: -0.8%; as for `N#CC1(Nc2ccccc2)CCN(CCc2ccccc2)CC1`, inactive: -8.08%.

Take `CCN1CCC(Nc2ccc(Cl)cc2)CC1`: the inhibition is inactive: -2.45%.

Consider `O=C(NCC1(N2CCCCC2)CCCCC1)c1cccc(C(F)(F)F)c1`, for which the inhibition is inactive: -6.83%. In the case of `CN1CCN(CCOC(=O)C(O)(c2ccccc2)c2ccccc2)CC1` it was inactive: 2.99%. As for `COc1ccc(NC2CCN(C(=O)OC(C)(C)C)CC2)cc1`, the figure is inactive: -6.32%. Consider `CC(C)c1ccc(C(=O)NCC2(N3CCOCC3)CCCCC2)cc1`, for which the inhibition is inactive: -13.6%. In the case of `COc1cc(C(=O)NCC2(N3CCCCC3)CCCCC2)ccc1OC(F)F` it was inactive: -4.35%; in that of `O=C(NCC1(N2CCOCC2)CCCCC1)c1cc(=O)[nH]c2ccccc12`, inactive: -3.33%; in that of `CCOc1ccc(C)cc1CN(CCCl)CCCl`, inactive: -1.8%. In the case of `O=C1CCN(Cc2ccccc2)CC1` it was inactive: -25.7%. As for `COc1ccc(NC2CCN(CCc3ccccc3)CC2)c(OC)c1`, the figure is inactive: -4.77%; as for `CCOC(=O)N1CCC(Nc2ccc(F)cc2)CC1`, inactive: 1.56%. On to `O=P1(N(CCCl)CCCl)SCCCS1`, for which the inhibition is inactive: -5.13%. In the case of `CCCCOc1ccc(C(=O)NCC2(N3CCOCC3)CCCCC2)cc1` it was inactive: 3.7%; in that of `O=C(NCC1(N2CCCCC2)CCCCC1)c1ccc(F)cc1`, inactive: -7.56%; in that of `CCOC(=O)N1CCC(Nc2cccc(C)c2)CC1`, inactive: -4.39%.

`COc1cc(C(=O)NCC2(N(C)C)CCCCC2)ccc1OC(F)F`: the inhibition was inactive: -1.55%.

`O=C(NCC1(N2CCCCC2)CCCCC1)c1cccs1`: the inhibition is inactive: -2.24%. Take `O=C(NCC1(N2CCCCC2)CCCCC1)c1ccc(=O)[nH]c1`: the inhibition is inactive: 2.82%.

For `COc1ccc(C(=O)NCC2(N3CCCCC3)CCCCC2)c(OC)c1OC`, the inhibition was inactive: 1.26%.

Take `CC(C)(C)OC(=O)N1CCC(N(C(=O)c2ccccc2)c2ccc(F)cc2)CC1`: the inhibition is inactive: 0.26%.

For `COc1ccc(C(=O)NCC2(N3CCCCC3)CCCCC2)cc1`, the inhibition is inactive: -6.88%. As for `Cc1cccc(NC2(C#N)CCN(Cc3ccccc3)CC2)c1`, the figure is inactive: -2.4%; as for `CSc1ccccc1C(=O)NCC1(N2CCCCC2)CCCCC1`, inactive: -3.03%. In the case of `O=C(NCC1(N2CCOCC2)CCCCC1)c1cc2ccccc2o1`, the inhibition was inactive: -5.18%.

`Cc1cc(C)cc(N(C(=O)c2ccccc2)C2CCN(C(=O)OC(C)(C)C)CC2)c1`: the inhibition was inactive: 6.69%.

As for `O=C(NCC1(N2CCCCC2)CCCCC1)c1ccc(Cl)nc1`, the inhibition was inactive: 2.02%.

As for `CCOC(=O)N1CCC(Nc2ccc(OC)cc2)CC1`, the inhibition was inactive: -7.18%. With `COc1ccc(Cl)cc1C(=O)NCC1(N2CCOCC2)CCCCC1`, the inhibition is inactive: 0.37%.

On to `N#CC1(Nc2ccccc2)CCN(Cc2ccccc2)CC1`, for which the inhibition was inactive: -4.57%. As for `O=C(NCC1(N2CCCCC2)CCCCC1)c1ccc(Cl)s1`, the figure is inactive: -10.7%; as for `O=C(OC1CN2CCC1CC2)C1c2ccccc2Oc2ccccc21` (stereo not given), inactive: -3.77%.
